Test results reported in PubChem BioAssay AID488922 (Johns Hopkins Ion Channel Center, 2010).
The list shows a part of the results, in another mix than the full data. Calls of active or inactive are those of the source.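 The calls were made as follows: active = ratio B-score over 3 SD below the library mean, with starting fluorescence within 5 SD of its mean; inactive = the rest, inconclusive results apart.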

Amino acid sequences for entries named in this document (tags omitted). A change or cut given only in a name is not applied to a line headed by its entry.
UniProt Q9NPC2: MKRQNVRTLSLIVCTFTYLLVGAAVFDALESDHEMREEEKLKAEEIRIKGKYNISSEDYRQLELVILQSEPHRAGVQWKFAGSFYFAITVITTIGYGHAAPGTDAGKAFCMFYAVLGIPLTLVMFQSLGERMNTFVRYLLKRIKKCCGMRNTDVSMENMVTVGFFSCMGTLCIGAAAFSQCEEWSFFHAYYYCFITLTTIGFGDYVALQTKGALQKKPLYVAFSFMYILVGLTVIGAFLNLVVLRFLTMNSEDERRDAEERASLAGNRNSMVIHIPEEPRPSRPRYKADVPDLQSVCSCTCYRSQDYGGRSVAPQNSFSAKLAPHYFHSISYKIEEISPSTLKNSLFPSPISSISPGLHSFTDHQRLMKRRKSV

Each molecule was assayed against Potassium channel subfamily K member 9 (Homo sapiens) (UniProt Q9NPC2) (assay: blockers of human TASK-3 (KCNK9) channel – HEK293 cells, thallium flux, primary screen (AID 488922;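 also: negative B-score means less thallium flux so channel inhibition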)). Conditions: HEK293 KCNK9, FluxOR thallium flux fluorescence; at 10 µM; active compounds read low.

| SMILES | B-score |
| --- | --- |
| O=P(Nc1nccs1)(c1ccccc1)c1nc2ccccc2s1 (stereo unspecified) | active: -12.8 |
